Protein sequences, listed by entry. Tags and fused reporters are not part of them. Residues count along the entry.
UniProt Q9Y4B6, 1058-1396 limits assumed: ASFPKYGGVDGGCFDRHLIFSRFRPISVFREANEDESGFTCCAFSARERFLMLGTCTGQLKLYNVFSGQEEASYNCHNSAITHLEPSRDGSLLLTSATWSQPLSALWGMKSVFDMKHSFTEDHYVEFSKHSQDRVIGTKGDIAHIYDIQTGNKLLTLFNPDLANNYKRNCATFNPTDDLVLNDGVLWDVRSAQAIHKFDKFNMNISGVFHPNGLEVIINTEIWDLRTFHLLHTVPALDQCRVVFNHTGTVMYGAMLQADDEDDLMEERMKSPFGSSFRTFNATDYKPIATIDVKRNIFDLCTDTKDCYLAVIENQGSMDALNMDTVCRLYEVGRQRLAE

In patent US20260382728A1, “MODIFIED PROTEINS AND PROTEIN BINDERS AND DEGRADERS” (published 2026):

Biological target: DCAF1 (1058-1396) (Homo sapiens, UniProt Q9Y4B6)
Assay: SPR binding to DCAF1 (1058-1396), steady state Kd
Settings: 25 °C, steady state affinity model, Table 7

Row | Compound | Kd
1 | Nc1nc(O)cc(N2CCC[C@@H](Nc3cc(N4CCOCC4)ncn3)C2)n1 | > 100 µM
2 | Fc1cccc(N2CCC[C@@H](Nc3ccnc(N4CCOCC4)c3)C2)c1 | > 100 µM
3 | Cn1cc(N2CCC[C@@H](Nc3cc(N4CCOCC4)ncn3)C2)cn1 | > 100 µM
4 | O=C(c1ccc(Cl)c(Cl)c1)N1CCC2(CC1)CN(c1ccccc1)CCO2 | > 100 µM
5 | CN1CCN(c2cc(N[C@@H]3CCCN(c4cccc(F)c4)C3)ncn2)CC1 | > 100 µM
6 | CNC(=O)c1ccnc(N[C@H]2[C@@H]3CN(c4ccccc4)C[C@@H]32)c1 | > 100 µM
7 | Oc1cc(N2CCC[C@@H](Nc3cc(N4CCOCC4)ncn3)C2)ccn1 | > 100 µM
8 | N#Cc1nnc(N2CCC[C@@H](Nc3cc(N4CCOCC4)ncn3)C2)s1 | > 100 µM
9 | O=C(NCC1CN(c2ccccc2)C1)c1ccc(Cl)c(Cl)c1 | > 100 µM
10 | Fc1cccc(N2CCC[C@@H](Nc3cnnc(N4CCOCC4)c3)C2)c1 | > 100 µM
11 | Cc1nnc(N2CCC[C@@H](Nc3cc(N4CCOCC4)ncn3)C2)o1 | < 25 µM
12 | CNC(=O)c1ccnc(N2CC3(CN(c4ccccc4)C3)C2)c1 | > 100 µM
13 | c1nc(NC2CCN(C3CCCCC3)CC2)cc(N2CCOCC2)n1 | 50 to 100 µM
14 | Fc1cccc(N2CCC[C@@H](Nc3cc(N4CCOCC4)ccn3)C2)c1 | > 100 µM
15 | Cc1cncc(N2CCC[C@@H](Nc3cc(N4CCOCC4)ncn3)C2)n1 | > 100 µM
16 | Cc1ccc(N2CCC[C@@H](Nc3cc(N4CCOCC4)ncn3)C2)nc1 | > 100 µM
17 | CNC(=O)c1ccnc(N2C[C@H]3C[C@@H](C2)N3c2ccccc2)c1 | > 100 µM
18 | Nc1ccnc(N2CCC[C@@H](Nc3cc(N4CCOCC4)ncn3)C2)c1 | > 100 µM
19 | CNC(=O)c1cc(N2CCC(Nc3ccccc3)C2)ncn1 (centres unmarked) | > 100 µM
20 | O=C(N[C@H]1[C@@H]2CN(c3ccccc3)C[C@@H]21)c1ccc(Cl)c(Cl)c1 | 25 to 50 µM
21 | Fc1cccc(N2CCC[C@@H](Nc3cc(N4CCNCC4)ncn3)C2)c1 | > 100 µM
22 | O=C(c1ccc(Cl)c(Cl)c1)N1CCC2(CC1)CCN2c1ccccc1 | > 100 µM
23 | C#Cc1cccc(N2CCC[C@@H](Nc3cc(N4CCOCC4)ncn3)C2)n1 | > 100 µM
24 | O=C(c1ccc(Cl)c(Cl)c1)N1CC2(CC(Nc3ccccc3)C2)C1 | 25 to 50 µM

Row | Compound | Kd
25 | Fc1cccc(N2CCC[C@@H](Nc3cc(N4CCOCC4)cnn3)C2)c1 | > 100 µM
26 | c1nc(N[C@@H]2CCCN(C3CCCCC3)C2)cc(N2CCOCC2)n1 | > 100 µM
27 | O=C(c1ccc(Cl)c(Cl)c1)N1CCC2(CCN(c3ccccc3)C2)C1 (centres unmarked) | > 100 µM
28 | c1nc(N[C@@H]2CCCN(c3nc[nH]n3)C2)cc(N2CCOCC2)n1 | > 100 µM
29 | N#Cc1cnc(N2CCC[C@@H](Nc3cc(N4CCOCC4)ncn3)C2)cn1 | > 100 µM
30 | Nc1ccc(N2CCC[C@@H](Nc3cc(N4CCOCC4)ncn3)C2)c(Br)c1 | > 100 µM
31 | Cc1cc(N2CCC[C@@H](Nc3cc(N4CCOCC4)ncn3)C2)ncc1N | > 100 µM
32 | c1nc(N[C@@H]2CCCN(c3cc(C4CC4)no3)C2)cc(N2CCOCC2)n1 | 50 to 100 µM
33 | Fc1cccc(N2CCC[C@H](Nc3nc(N4CCOCC4)ns3)C2)c1 | > 100 µM
34 | OCc1ccc(N2CCC[C@@H](Nc3cc(N4CCOCC4)ncn3)C2)cc1F | > 100 µM
35 | c1cnc(N2CCC[C@@H](Nc3cc(N4CCOCC4)ncn3)C2)nc1 | < 25 µM
36 | Fc1cccc(N2CCC[C@@H](Nc3nc(N4CCOCC4)c4nc[nH]c4n3)C2)c1 | > 100 µM
37 | CNC(=O)c1ccnc(N2CC3(CC(Nc4ccccc4)C3)C2)c1 | > 100 µM
38 | Nc1ccc(N2CCC[C@@H](Nc3cc(N4CCOCC4)ncn3)C2)cc1 | > 100 µM
39 | CNC(=O)c1ccnc(NCC2CN(c3ccccc3)C2)n1 | > 100 µM
40 | CCC(=O)N1CC2(C1)CN(c1cc(N3CCOCC3)ccn1)C2 | > 100 µM
41 | c1nc(N[C@@H]2CCCN(c3cn[nH]c3)C2)cc(N2CCOCC2)n1 | > 100 µM
42 | Cc1cc(N2CCC[C@@H](Nc3cc(N4CCOCC4)ncn3)C2)n(C)n1 | > 100 µM
43 | CNC(=O)c1cc(NCC2CCN(c3ccccc3)CC2)ncn1 | > 100 µM
44 | Fc1cccc(N2CCC[C@@H](Nc3cc(N4CCOCC4)n4ncnc4c3)C2)c1 | > 100 µM
45 | c1cnc(N2CCC[C@@H](Nc3cc(N4CCOCC4)ncn3)C2)cn1 | 25 to 50 µM
46 | C#Cc1ccc(N2CCC[C@@H](Nc3cc(N4CCOCC4)ncn3)C2)nn1 | > 100 µM
47 | CNC(=O)c1ccnc(N[C@H]2C[C@H](Nc3ccccc3)C2)c1 | > 100 µM
48 | Fc1cccc(N2CCC[C@@H](Nc3cccc(N4CCOCC4)n3)C2)c1 | > 100 µM

Row | Compound | Kd
49 | CNC(=O)c1ccnc(N2C[C@H]3C[C@@H]2CN3c2ccccc2)c1 | > 100 µM
50 | Cc1nc(N2CCC[C@@H](Nc3cc(N4CCOCC4)ncn3)C2)no1 | > 100 µM
51 | Fc1cccc(N2CCC[C@@H](Nc3nsc(N4CCOCC4)n3)C2)c1 | > 100 µM
52 | Fc1cccc(N2CCC[C@@H](Nc3cc(N4CCOCC4)c4nc[nH]c4n3)C2)c1 | > 100 µM
53 | CNC(=O)c1cc(N[C@@H]2CCCN(c3cccc(F)c3)C2)ncn1 | 25 to 50 µM
54 | Cc1ccc(C)c(N2CCC[C@@H](Nc3cc(N4CCOCC4)ncn3)C2)c1 | > 100 µM
55 | Oc1cncc(N2CCC[C@@H](Nc3cc(N4CCOCC4)ncn3)C2)n1 | > 100 µM
56 | O=C(c1ccc(Cl)c(Cl)c1)N1C[C@H]2C[C@@H]1CN2c1ccccc1 | > 100 µM
57 | Fc1cnc(N2CCC[C@@H](Nc3cc(N4CCOCC4)ncn3)C2)c(F)c1 | 25 to 50 µM
58 | c1ncc(N2CCC[C@@H](Nc3cc(N4CCOCC4)ncn3)C2)cn1 | > 100 µM
59 | Oc1cncc(N2CCC[C@@H](Nc3cc(N4CCOCC4)ncn3)C2)c1 | 50 to 100 µM
60 | O=C(c1ccc(Cl)c(Cl)c1)N1C[C@H]2C[C@@H](C1)N2c1ccccc1 | > 100 µM
61 | O=C(NCC(CO)CNc1ccccc1)c1ccc(Cl)c(Cl)c1 (centres unmarked) | > 100 µM
62 | Cc1cnc(N2CCC[C@@H](Nc3cc(N4CCOCC4)ncn3)C2)cn1 | 25 to 50 µM
63 | c1nc(N[C@@H]2CCCN(C3CCCC3)C2)cc(N2CCOCC2)n1 | 50 to 100 µM
64 | CNC(=O)c1ccnc(N2CCC3(CC2)CN(c2ccccc2)CCO3)c1 | > 100 µM
65 | CNC(=O)c1cc(N2CCC3(CCN(c4ccccc4)C3)C2)ncn1 (centres unmarked) | > 100 µM
66 | CNC(=O)c1ccnc(N[C@@H]2CCCN(c3cccc(F)c3)C2)c1 | > 100 µM
67 | CNC(=O)c1ccnc(N2CCC3(CCN(c4ccccc4)C3)C2)c1 (centres unmarked) | < 25 µM
68 | COc1cnc(N2CCC[C@@H](Nc3cc(N4CCOCC4)ncn3)C2)cn1 | 50 to 100 µM
69 | N#CCn1cc(N2CCC[C@@H](Nc3cc(N4CCOCC4)ncn3)C2)cn1 | > 100 µM
70 | Fc1cccc(N2CCC[C@@H](Nc3ccnc(N4CCOCC4)n3)C2)c1 | 50 to 100 µM

Next, values leading:

Row | Kd | Compound
71 | 50 to 100 µM | c1ccc(NC2CCCC(Nc3cc(N4CCOCC4)ncn3)C2)cc1 (centres unmarked)
72 | 25 to 50 µM | c1ccc(N[C@H]2CC[C@H](Nc3cc(N4CCOCC4)ncn3)CC2)cc1
73 | > 100 µM | c1ccc(N2CC3(CCN(c4cc(N5CCOCC5)ncn4)C3)C2)cc1
74 | > 100 µM | c1ccc(NC2CN(c3cc(N4CCOCC4)ncn3)C2)cc1
75 | 25 to 50 µM | c1ccc(NC2CCN(c3nccc(N4CCOCC4)n3)C2)cc1 (centres unmarked)
76 | > 100 µM | Fc1cccc(N2CCC3C(CNc4cc(N5CCOCC5)ncn4)C3C2)c1 (centres unmarked)
77 | > 100 µM | C=CC(=O)N1CCN(c2cc(N3CCC(Nc4ccccc4)C3)ncn2)CC1 (centres unmarked)
78 | > 100 µM | c1ccc(N2[C@@H]3C[C@H]2CN(c2cc(N4CCOCC4)ncn2)C3)cc1
79 | 50 to 100 µM | c1ccc(NC2CC3CC2N(c2cc(N4CCOCC4)ncn2)C3)cc1 (centres unmarked)
80 | > 100 µM | c1ccc(N2CCC(CCNc3cc(N4CCOCC4)ncn3)C2)cc1 (centres unmarked)
81 | > 100 µM | c1ccc(NCC2CC3(C2)CN(c2cc(N4CCOCC4)ncn2)C3)cc1
82 | > 100 µM | c1ccc(N2CCC3(C2)CN(c2cc(N4CCOCC4)ncn2)C3)cc1
83 | > 100 µM | c1ccc(N2CCC(CNc3nccc(N4CCOCC4)n3)CC2)cc1
84 | 25 to 50 µM | c1ccc(N2CCC[C@@H](Nc3cc(N4CCOCC4)ncn3)C2)cc1
85 | 50 to 100 µM | c1ccc(NC2CCCCN(c3cc(N4CCOCC4)ncn3)C2)cc1 (centres unmarked)
86 | > 100 µM | c1ccc(N2CC(CNc3cc(N4CCOCC4)ncn3)C2)cc1
87 | > 100 µM | c1ccc(N2CC3(C2)CN(c2cc(N4CCOCC4)ncn2)C3)cc1
88 | > 100 µM | c1ccc(N2CCCC3(C2)CN(c2cc(N4CCOCC4)ncn2)C3)cc1
89 | 25 to 50 µM | c1cncc(N2CCC[C@@H](Nc3cc(N4CCOCC4)ncn3)C2)c1
90 | < 25 µM | c1ccc(NC2CCN(c3cc(N4CCOCC4)ncn3)C2)cc1 (centres unmarked)
91 | > 100 µM | c1ccc(N2CCC(Nc3cc(N4CCOCC4)ncn3)CC2)cc1
92 | 50 to 100 µM | c1ccc(N2CCOC3(CCN(c4cc(N5CCOCC5)ncn4)CC3)C2)cc1

Row | Kd | Compound
93 | < 25 µM | c1cc(N2CCC[C@@H](Nc3cc(N4CCOCC4)ncn3)C2)ccn1
94 | > 100 µM | c1ccc(N2CCC23CCN(c2cc(N4CCOCC4)ncn2)CC3)cc1
95 | > 100 µM | c1ccc(NCC2CCN(c3cc(N4CCOCC4)ncn3)C2)cc1 (centres unmarked)
96 | > 100 µM | c1ccc(N2CC3(CCC3CNc3cc(N4CCOCC4)ncn3)C2)cc1 (centres unmarked)
97 | > 100 µM | Fc1ccccc1N1CCC[C@@H](Nc2cc(N3CCOCC3)ncn2)C1
98 | > 100 µM | c1ccc(N2CCC3(CCN(c4cc(N5CCOCC5)ncn4)C3)C2)cc1 (centres unmarked)
99 | > 100 µM | c1ccc(N[C@H]2C[C@H](Nc3cc(N4CCOCC4)ncn3)C2)cc1
100 | > 100 µM | c1ccc(NCC2CN(c3cc(N4CCOCC4)ncn3)C2)cc1
101 | > 100 µM | c1ccc(N[C@H]2CC[C@H](Nc3cc(N4CCOCC4)ncn3)C2)cc1
102 | 50 to 100 µM | c1nc(N2CCOCC2)cc(N2CCC(Nc3ccc4cc[nH]c4c3)C2)n1 (centres unmarked)
103 | > 100 µM | c1ccc(N2CCC3(CC2)CC(CNc2cc(N4CCOCC4)ncn2)C3)cc1
104 | > 100 µM | OCc1ccc(NC2CCN(c3cc(N4CCOCC4)ncn3)C2)nc1 (centres unmarked)
105 | < 25 µM | OCc1ccc(N2CCC[C@@H](Nc3cc(N4CCOCC4)ncn3)C2)nc1
106 | < 25 µM | c1ccc(NC2CC(CCNc3cc(N4CCOCC4)ncn3)C2)cc1 (centres unmarked)
107 | > 100 µM | OCc1ccc(N2CCC[C@@H](Nc3cc(N4CCOCC4)ncn3)C2)cc1
108 | > 100 µM | c1ccc(N[C@H]2CCCN(c3cc(N4CCOCC4)ncn3)C2)cc1
109 | < 25 µM | c1ccc(N2C[C@@H]3[C@H](C2)[C@H]3Nc2cc(N3CCOCC3)ncn2)cc1
110 | > 100 µM | c1ccc(NC2CCC3CN(c4cc(N5CCOCC5)ncn4)CC32)cc1 (centres unmarked)
111 | 50 to 100 µM | Oc1cccc(N2CCC[C@@H](Nc3cc(N4CCOCC4)ncn3)C2)c1
112 | > 100 µM | Fc1cccc(N2CC[C@@H](Nc3cc(N4CCOCC4)ncn3)C2)c1
113 | > 100 µM | c1ccc(NC2CCC(CNc3cc(N4CCOCC4)ncn3)C2)cc1 (centres unmarked)
